The numbers were not newly measured in PubChem BioAssay AID977610, which cites them from elsewhere.

What follows is the remainder of the data, with few or none of the hits. Active and inactive are the calls of the source. Cut-off not given; nearly all actives show Ki up to about 18000 µM.

As usually defined, the Ki is the dissociation constant of the complex between target and ligand, obtained from inhibition or displacement.

This data set in a line: PubChem AID 977610. As to conditions: PDB protein-ligand complexes, literature Ki; protein: Glycogen Phosphorylase b from Oryctolagus cuniculus, PDB entry 2qnb unless noted.
On to `O=C(NC(=O)c1ccccc1)N[C@@H]1O[C@H](CO)[C@@H](O)[C@H](O)[C@H]1O`, for which the Ki was active: 4.6 µM. Turning to `CC(C)C[C@H](NC(=O)[C@H](CCCN=C(N)N)NC(=O)[C@@H](NC(=O)[C@H](CC(=O)O)NC(=O)[C@H](CCC(N)=O)NC(=O)[C@H](Cc1c[nH]c2ccccc12)NC(=O)[C@H](CCCN=C(N)N)NC(=O)[C@H](CO)NC(=O)[C@H](CC(N)=O)NC(=O)[C@H](C)N)[C@@H](C)O)C(=O)O`, the inhibition constant (Ki) was active: 16.2 µM [protein: CFTR Associated Ligand (CAL) E317A PDZ domain, PDB entry 4k78]. `CC[C@H](C)[C@H](NC(=O)[C@@H](NC(=O)[C@H](CO)NC(=O)[C@@H](NC(=O)[C@@H]1CCCN1C(=O)[C@H](C)NC(=O)[C@H](CCCN=C(N)N)NC(=O)[C@H](CO)NC(=O)[C@H](CC(N)=O)NC(=O)[C@H](C)N)[C@@H](C)O)[C@@H](C)CC)C(=O)O`: the Ki is active: 275 µM [protein: CFTR Associated Ligand (CAL) PDZ domain, PDB entry 4joe].
